Experimental data from patent US4610994A, “1,2,3-triazole anticonvulsant drugs” (priority 1984, dated 1986).

Assays:
[1] = system: subcutaneous Metrazol seizures; assay: subcutaneous Metrazol Seizure Threshold Test (sc Met) in mice
[2] = system: maximal electroshock seizures; assay: maximal electroshock seizure (MES) pattern test in rats; conditions: p.o.

## CCC1(c2ccccc2)C(=O)NC(=O)NC1=O [Phenobarbital]
[1]; mice i.p.
  effectiveness by the sc Met test: effective by all four anticonvulsant tests

## O=C1NC(=O)C(c2ccccc2)(c2ccccc2)N1 [Phenytoin]
[2]
  P.I. by the MES test: > 100
[1]; mice, p.o.
  P.I. by the sc Met test: < 0.29
